Reference: patent US11324832B2, “Tripartite modulators of endosomal G protein-coupled receptors” (Endosome Therapeutics, Inc., priority 2015, dated 2022)

Chains of the proteins cited; added tags and fusions are not shown. Residues count along the entry.
UniProt O60894, 27-148: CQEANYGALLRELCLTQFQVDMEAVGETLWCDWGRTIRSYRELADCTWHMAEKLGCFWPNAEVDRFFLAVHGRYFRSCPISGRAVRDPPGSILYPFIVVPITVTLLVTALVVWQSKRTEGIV
UniProt Q16602, 23-461: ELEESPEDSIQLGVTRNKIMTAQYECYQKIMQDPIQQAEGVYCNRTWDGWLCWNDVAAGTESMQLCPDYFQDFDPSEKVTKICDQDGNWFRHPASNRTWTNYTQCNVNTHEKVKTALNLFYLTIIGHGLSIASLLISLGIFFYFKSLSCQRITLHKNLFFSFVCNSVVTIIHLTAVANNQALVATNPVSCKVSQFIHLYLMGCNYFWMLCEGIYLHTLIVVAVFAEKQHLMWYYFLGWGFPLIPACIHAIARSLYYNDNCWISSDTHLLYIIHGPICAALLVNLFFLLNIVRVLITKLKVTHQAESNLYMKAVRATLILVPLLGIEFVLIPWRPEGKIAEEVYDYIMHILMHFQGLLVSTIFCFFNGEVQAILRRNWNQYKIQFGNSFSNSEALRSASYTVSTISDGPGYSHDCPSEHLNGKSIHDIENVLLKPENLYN

Target: T1, CLR plus RAMP1 (Homo sapiens, UniProt O60894+Q16602)
T1 construct: expressed in transfected cells; host or cells: HEK293 (transient)
Experiment: FRET ERK biosensors in HEK293 cells expressing CLR plus RAMP1
Type: cell-based
Conditions: preincubation 30 min
Procedure: HEK293 cells were transfected with 55 ng/well rat NK1R with N-terminal HA. 11 epitope tag (HA-NK1R) or CLR plus RAMP1 and 40 ng/well FRET biosensors. FRET was assessed 48 h after transfection, following serum restriction (0.5% FBS overnight). For experiments using clathrin or dynamin siRNA, cells were transfected with 55 ng/well rat HA-NK1R, 40 ng/well FRET biosensor and 25 nM/well scrambled, clathrin or dynamin ON-TARGETplus SMARTpool siRNA (GE Dharmacon). FRET was assessed 72 h after transfection, following serum restriction (0.5% FBS overnight). Cells were equilibrated in HBSS at 37° C. and FRET was analyzed using a GE Healthcare INCell 2000 Analyzer. For GFP/RFP emission ratio analysis, cells were sequentially excited using a FITC filter (490/20) with emission measured using dsRed (605/52) and FITC (525/36) filters, and a polychroic optimized for the FITC/dsRed filter pair (Quad4). For CFP/YFP emission ratio analysis, cells were sequentially excited using a CFP filter (430/24) with emission measured using YFP (535/30) and CFP (470/24) filters, and a polychroic optimized for the CFP/YFP filter pair (Quad3). Cells were imaged every 1 min, allowing image capture of 14 wells per minute. Baseline emission ratio images were captured for 4 min. […] Data were analyzed as described and expressed as emission ratios relative to baseline for each cell (F/F0). […]

VTHRLAGLLSRSGGVVKDNFVPTNVGSEAF-NH2 [CGRP8-37, CGRP-R / CLR antagonist]
antagonism of CGRP-stimulated cytosolic ERK, preincubation: inhibited CGRP-stimulated activation of nuclear and cytosolic ERK | antagonism of CGRP-stimulated nuclear ERK, preincubation: inhibited CGRP-stimulated activation of nuclear and cytosolic ERK
